Laboratory results from article PMC3914206.

Experiments:
Assay type in all cases: binding
Details in all cases: Compound Concentration 10 µM
panel of 442 kinases [1] = biological target: T1, panel of 442 kinases (Homo sapiens, UniProt P49137)
T1 construct: purchased KINOMEscan
Excerpt: (§1) We assessed the selectivity of members of this scaffold using the KINOMEscan methodology across a near comprehensive panel of 442 kinases [[18,27]].

panel of 442 kinases [2] = biological target: T2, panel of 442 kinases (Homo sapiens, UniProt O14733)
T2 construct: purchased KINOMEscan
Excerpt: as §1

panel of 442 kinases [3] = biological target: T3, panel of 442 kinases (Homo sapiens, UniProt Q15375)
T3 construct: purchased KINOMEscan
Excerpt: as §1

panel of 442 kinases [4] = biological target: T4, panel of 442 kinases (Homo sapiens, UniProt P22694)
T4 construct: purchased KINOMEscan
Excerpt: as §1

panel of 442 kinases [5] = biological target: T5, panel of 442 kinases (Homo sapiens, UniProt O96017)
T5 construct: purchased KINOMEscan
Excerpt: as §1

panel of 442 kinases [6] = biological target: T6, panel of 442 kinases (Homo sapiens, UniProt P54762)
T6 construct: purchased KINOMEscan
Excerpt: as §1

panel of 442 kinases [7] = biological target: T7, panel of 442 kinases (Homo sapiens, UniProt P23458)
T7 construct: purchased KINOMEscan
Excerpt: as §1

panel of 442 kinases [8] = biological target: T8, panel of 442 kinases (Homo sapiens, UniProt P08581)
T8 construct: purchased KINOMEscan
Excerpt: as §1

panel of 442 kinases [9] = biological target: T9, panel of 442 kinases (Homo sapiens, UniProt P31152)
T9 construct: purchased KINOMEscan
Excerpt: as §1

panel of 442 kinases [10] = biological target: T10, panel of 442 kinases (Homo sapiens, UniProt O75747)
T10 construct: purchased KINOMEscan
Excerpt: as §1

panel of 442 kinases [11] = biological target: T11, panel of 442 kinases (Homo sapiens, UniProt P42345)
T11 construct: purchased KINOMEscan
Excerpt: as §1

panel of 442 kinases [12] = biological target: T12, panel of 442 kinases (Homo sapiens, UniProt Q15835)
T12 construct: purchased KINOMEscan
Excerpt: as §1

panel of 442 kinases [13] = biological target: T13, panel of 442 kinases (Homo sapiens, UniProt P27361)
T13 construct: purchased KINOMEscan
Excerpt: as §1

panel of 442 kinases [14] = biological target: T14, panel of 442 kinases (Homo sapiens, UniProt O15111)
T14 construct: purchased KINOMEscan
Excerpt: as §1

panel of 442 kinases [15] = biological target: T15, panel of 442 kinases (Homo sapiens, UniProt Q5VT25)
T15 construct: purchased KINOMEscan
Excerpt: as §1

panel of 442 kinases [16] = biological target: T16, panel of 442 kinases (Homo sapiens, UniProt P15056, V600E)
T16 construct: purchased KINOMEscan
Excerpt: as §1

panel of 442 kinases [17] = biological target: T17, panel of 442 kinases (Homo sapiens, UniProt Q15208)
T17 construct: purchased KINOMEscan
Excerpt: as §1

panel of 442 kinases [18] = biological target: T18, panel of 442 kinases (Homo sapiens, UniProt Q00536)
T18 construct: purchased KINOMEscan
Excerpt: as §1

panel of 442 kinases [19] = biological target: T19, panel of 442 kinases (Homo sapiens, UniProt Q16512)
T19 construct: purchased KINOMEscan
Excerpt: as §1

panel of 442 kinases [20] = biological target: T20, panel of 442 kinases (Homo sapiens, UniProt P04049)
T20 construct: purchased KINOMEscan
Excerpt: as §1

panel of 442 kinases [21] = biological target: T21, panel of 442 kinases (Homo sapiens, UniProt Q07002)
T21 construct: purchased KINOMEscan
Excerpt: as §1

panel of 442 kinases [22] = biological target: T22, panel of 442 kinases (Homo sapiens, UniProt P00533, L858R/T790M)
T22 construct: purchased KINOMEscan
Excerpt: as §1

panel of 442 kinases [23] = biological target: T23, panel of 442 kinases (Homo sapiens, UniProt O94768)
T23 construct: purchased KINOMEscan
Excerpt: as §1

panel of 442 kinases [24] = biological target: T24, panel of 442 kinases (Homo sapiens, UniProt Q8IY84)
T24 construct: purchased KINOMEscan
Excerpt: as §1

panel of 442 kinases [25] = biological target: T25, panel of 442 kinases (Homo sapiens, UniProt P10721, V559D/V654A)
T25 construct: purchased KINOMEscan
Excerpt: as §1

panel of 442 kinases [26] = biological target: T26, panel of 442 kinases (Homo sapiens, UniProt Q16539)
T26 construct: purchased KINOMEscan
Excerpt: as §1

panel of 442 kinases [27] = biological target: T27, panel of 442 kinases (Homo sapiens, UniProt P57078)
T27 construct: purchased KINOMEscan
Excerpt: as §1

panel of 442 kinases [28] = biological target: T28, panel of 442 kinases (Homo sapiens, UniProt P21860)
T28 construct: purchased KINOMEscan
Excerpt: as §1

panel of 442 kinases [29] = biological target: T29, panel of 442 kinases (Homo sapiens, UniProt P35916)
T29 construct: purchased KINOMEscan
Excerpt: as §1

panel of 442 kinases [30] = biological target: T30, panel of 442 kinases (Homo sapiens, UniProt P42336, C420R)
T30 construct: purchased KINOMEscan
Excerpt: as §1

panel of 442 kinases [31] = biological target: T31, panel of 442 kinases (Homo sapiens, UniProt Q9BUB5)
T31 construct: purchased KINOMEscan
Excerpt: as §1

panel of 442 kinases [32] = biological target: T32, panel of 442 kinases (Homo sapiens, UniProt P54646)
T32 construct: purchased KINOMEscan
Excerpt: as §1

panel of 442 kinases [33] = biological target: T33, panel of 442 kinases (Homo sapiens, UniProt P42336, E545K)
T33 construct: purchased KINOMEscan
Excerpt: as §1

panel of 442 kinases [34] = biological target: T34, panel of 442 kinases (Homo sapiens, UniProt P21127)
T34 construct: purchased KINOMEscan
Excerpt: as §1

panel of 442 kinases [35] = biological target: T35, panel of 442 kinases (Homo sapiens, UniProt Q06187)
T35 construct: purchased KINOMEscan
Excerpt: as §1

panel of 442 kinases [36] = biological target: T36, panel of 442 kinases (Homo sapiens, UniProt Q15303)
T36 construct: purchased KINOMEscan
Excerpt: as §1

panel of 442 kinases [37] = biological target: T37, panel of 442 kinases (Homo sapiens, UniProt O00750)
T37 construct: purchased KINOMEscan
Excerpt: as §1

panel of 442 kinases [38] = biological target: T38, panel of 442 kinases (Homo sapiens, UniProt P54760)
T38 construct: purchased KINOMEscan
Excerpt: as §1

panel of 442 kinases [39] = biological target: T39, panel of 442 kinases (Homo sapiens, UniProt P21709)
T39 construct: purchased KINOMEscan
Excerpt: as §1

panel of 442 kinases [40] = biological target: T40, panel of 442 kinases (Homo sapiens, UniProt P53667)
T40 construct: purchased KINOMEscan
Excerpt: as §1

panel of 442 kinases [41] = biological target: T41, panel of 442 kinases (Homo sapiens, UniProt O95382)
T41 construct: purchased KINOMEscan
Excerpt: as §1

panel of 442 kinases [42] = biological target: T42, panel of 442 kinases (Homo sapiens, UniProt Q9BQI3)
T42 construct: purchased KINOMEscan
Excerpt: as §1

COc1cc(C(=O)N2CCC(N3CCN(C)CC3)CC2)ccc1Nc1ncc2c(n1)N1CCc3cccc(c31)C(=O)N2C [Compound 24]
KINOMEscan: MAPKAPK2 (panel of 442 kinases [1]): 100
KINOMEscan: MKK7 (panel of 442 kinases [2]): 100
KINOMEscan: EPHA7 (panel of 442 kinases [3]): 91
KINOMEscan: PKAC-beta (panel of 442 kinases [4]): 100
KINOMEscan: CHEK2 (panel of 442 kinases [5]): 100
KINOMEscan: EPHB1 (panel of 442 kinases [6]): 100
KINOMEscan: JAK1(JH1domain-catalytic) (panel of 442 kinases [7]): 100
KINOMEscan: MET (panel of 442 kinases [8]): 100
KINOMEscan: ERK4 (panel of 442 kinases [9]): 100
KINOMEscan: PIK3C2G (panel of 442 kinases [10]): 100
KINOMEscan: MTOR (panel of 442 kinases [11]): 85
KINOMEscan: GRK1 (panel of 442 kinases [12]): 100
KINOMEscan: ERK1 (panel of 442 kinases [13]): 94
KINOMEscan: IKK-alpha (panel of 442 kinases [14]): 100
KINOMEscan: MRCKA (panel of 442 kinases [15]): 100
KINOMEscan: BRAF(V600E) (panel of 442 kinases [16]): 100
KINOMEscan: NDR1 (panel of 442 kinases [17]): 100
KINOMEscan: PCTK1 (panel of 442 kinases [18]): 100
KINOMEscan: PKN1 (panel of 442 kinases [19]): 100
KINOMEscan: RAF1 (panel of 442 kinases [20]): 100
KINOMEscan: PCTK3 (panel of 442 kinases [21]): 100
KINOMEscan: EGFR(L858R,T790M) (panel of 442 kinases [22]): 100
KINOMEscan: DRAK2 (panel of 442 kinases [23]): 100
KINOMEscan: NIM1 (panel of 442 kinases [24]): 100
KINOMEscan: KIT(V559D,V654A) (panel of 442 kinases [25]): 100
KINOMEscan: p38-alpha (panel of 442 kinases [26]): 38
KINOMEscan: RIPK4 (panel of 442 kinases [27]): 100
KINOMEscan: ERBB3 (panel of 442 kinases [28]): 100
KINOMEscan: FLT4 (panel of 442 kinases [29]): 84
KINOMEscan: PIK3CA(C420R) (panel of 442 kinases [30]): 100
KINOMEscan: MKNK1 (panel of 442 kinases [31]): 100
KINOMEscan: AMPK-alpha2 (panel of 442 kinases [32]): 89
KINOMEscan: PIK3CA(E545K) (panel of 442 kinases [33]): 100
KINOMEscan: CDC2L1 (panel of 442 kinases [34]): 98
KINOMEscan: BTK (panel of 442 kinases [35]): 100
KINOMEscan: ERBB4 (panel of 442 kinases [36]): 100
KINOMEscan: PIK3C2B (panel of 442 kinases [37]): 100
KINOMEscan: EPHB4 (panel of 442 kinases [38]): 100
KINOMEscan: EPHA1 (panel of 442 kinases [39]): 100
KINOMEscan: LIMK1 (panel of 442 kinases [40]): 100
KINOMEscan: ASK2 (panel of 442 kinases [41]): 100
KINOMEscan: EIF2AK1 (panel of 442 kinases [42]): 100
